The test system of series [1] is Primary Rabbit Kidney cells. Put plainly: Cytotoxic effect in primary rabbit kidney cells. Format: cell-based. Here is the method:
(§1) Human laryngeal epithelial carcinoma cells (HEp-2, ATCC, Rockville, Md.) were used for testing of antiviral compounds by cytopathic effect (CPE) inhibition and plaque reduction assay. […] HEp-2, African green monkey kidney cells (Vero, ATCC), HFF and primary rabbit kidney cells were used to determine the cytotoxic effect of compounds of formula I. These cells were propagated in Dulbeco's modified Eagle's medium (DMEM) (Sigma, USA) supplemented with 10% inactivated fetal calf serum (FCS), 25 mM HEPES, 0.2% sodium bicarbonate and 1% penicillin/-streptomycin at 37° C. in the presence of 5% CO2.
(§2) HFF, Vero and HEp-2 cells were seeded in 24-well tissue culture plates at a concentration of […] in DMEM containing 10% FCS and incubated for 24 hours at 37° C. in the presence of 5% CO2. To the monolayer of these cells 0.5, 1.0, 1.5 and 2.0 ml of solution of antiviral compounds were added in the respective wells in duplicate and the cells were then incubated in a 5% CO2 incubator at 37° C. for 72 hours. The cells were observed daily for any change in morphology. […] The cells-media mixture was then pipetted up and down several times to resuspend the cells and 0.2 ml of the cell suspension was added to 9.8 ml of trypan blue and cells were counted using hemocytometer. Each sample was counted three times with three replicate wells per sample.

Series [2] relates to Primary human foreskin fibroblast cells (HFF). Briefly: Cell proliferation assay (cytotoxicity) in HFF cells. Format: cell-based. Here is the method: as §1, §2
In series [3] the test system is Human laryngeal epithelial carcinoma cells (HEp-2). Put plainly: Cytotoxicity in HEp-2 cells. The format is cell-based. The settings on record: conc. per compound (ng/ml). Here is the method:
as §1, §2

The subject of series [4] is HFF cells. Briefly: CC50 in HFF cells (Table 3). Format: cell-based, human. Here is the method: The cells were observed daily for any change in morphology. The rounding and lysis of cells were observed if the compound has cytotoxic effect. At the end of this time, the media-drug solution was removed and the cells washed. […] The cells-media mixture was then pipetted up and down several times to resuspend the cells and 0.2 ml of the cell suspension was added to 9.8 ml of trypan blue and cells were counted using hemocytometer. Each sample was counted three times with three replicate wells per sample.

Series [5] relates to Daudi cells. Put plainly: CC50 in Daudi cells (Table 3). The format is cell-based. The note with it: Epstein-Barr Virus section of Table 3.

Turning to “acycloguanosine [Acyclovir, reference compound]”, in series [1], the “cytotoxicity (in words)” value is “No cytotoxicity”. Further, the “Qualitative Cytotoxic Effect at 2.0 ml dose” value in series [2] (Conc. 12500 ng/ml) and in series [2] (solution conc. per compound (ng/ml) (Acyclovir 250)) was “−” in each case. Also, the “Cell Cytotoxicity” value in series [3] was “−”.

One may read the CC50 as the concentration that lowers cell viability or growth by half. High values mean better tolerance by the cells, low ones harm at low concentration. For Betulin glycerol oxalate, the results for the CC50 in series [4] (Human Cytomegalovirus section of Table 3), in series [4] (Varicella-Zoster Virus section of Table 3) and in series [5] were above 0.1 µg/mL, 0.0635 µg/mL and above 0.05 µg/mL, respectively.

These data come from US6369101B1, “Therapeutic method to treat herpes virus infection” (Regents of the University of Minnesota, priority 1999, dated 2002).
